Data as given in paper PMC3914206.

Columns and labels:
Assay type in all cases: binding
Details in all cases: Compound Concentration 10 µM
[1] = target: T1, panel of 442 kinases (Homo sapiens, UniProt O15111)
T1 construct: purchased KINOMEscan
Description: (§1) We assessed the selectivity of members of this scaffold using the KINOMEscan methodology across a near comprehensive panel of 442 kinases [[18,27]].

[2] = target: T2, panel of 442 kinases (Homo sapiens, UniProt O95382)
T2 construct: purchased KINOMEscan
Description: as §1

[3] = target: T3, panel of 442 kinases (Homo sapiens, UniProt O96017)
T3 construct: purchased KINOMEscan
Description: as §1

[4] = target: T4, panel of 442 kinases (Homo sapiens, UniProt P00519, T315I)
T4 construct: purchased KINOMEscan
Description: as §1

[5] = target: T5, panel of 442 kinases (Homo sapiens, UniProt P00519, Y253F)
T5 construct: purchased KINOMEscan
Description: as §1

[6] = target: T6, panel of 442 kinases (Homo sapiens, UniProt P08069)
T6 construct: purchased KINOMEscan
Description: as §1

[7] = target: T7, panel of 442 kinases (Homo sapiens, UniProt P08631)
T7 construct: purchased KINOMEscan
Description: as §1

[8] = target: T8, panel of 442 kinases (Homo sapiens, UniProt P10721, D816H)
T8 construct: purchased KINOMEscan
Description: as §1

[9] = target: T9, panel of 442 kinases (Homo sapiens, UniProt P17948)
T9 construct: purchased KINOMEscan
Description: as §1

[10] = target: T10, panel of 442 kinases (Homo sapiens, UniProt P22694)
T10 construct: purchased KINOMEscan
Description: as §1

[11] = target: T11, panel of 442 kinases (Homo sapiens, UniProt P27448)
T11 construct: purchased KINOMEscan
Description: as §1

[12] = target: T12, panel of 442 kinases (Homo sapiens, UniProt P32298)
T12 construct: purchased KINOMEscan
Description: as §1

[13] = target: T13, panel of 442 kinases (Homo sapiens, UniProt P36888)
T13 construct: purchased KINOMEscan
Description: as §1

[14] = target: T14, panel of 442 kinases (Homo sapiens, UniProt P36888, D835H)
T14 construct: purchased KINOMEscan
Description: as §1

[15] = target: T15, panel of 442 kinases (Homo sapiens, UniProt P36896)
T15 construct: purchased KINOMEscan
Description: as §1

[16] = target: T16, panel of 442 kinases (Homo sapiens, UniProt P42336, C420R)
T16 construct: purchased KINOMEscan
Description: as §1

[17] = target: T17, panel of 442 kinases (Homo sapiens, UniProt P42345)
T17 construct: purchased KINOMEscan
Description: as §1

[18] = target: T18, panel of 442 kinases (Homo sapiens, UniProt P49137)
T18 construct: purchased KINOMEscan
Description: as §1

[19] = target: T19, panel of 442 kinases (Homo sapiens, UniProt P49840)
T19 construct: purchased KINOMEscan
Description: as §1

[20] = target: T20, panel of 442 kinases (Homo sapiens, UniProt P54646)
T20 construct: purchased KINOMEscan
Description: as §1

[21] = target: T21, panel of 442 kinases (Homo sapiens, UniProt P54760)
T21 construct: purchased KINOMEscan
Description: as §1

[22] = target: T22, panel of 442 kinases (Homo sapiens, UniProt P54762)
T22 construct: purchased KINOMEscan
Description: as §1

[23] = target: T23, panel of 442 kinases (Homo sapiens, UniProt P68400)
T23 construct: purchased KINOMEscan
Description: as §1

[24] = target: T24, panel of 442 kinases (Homo sapiens, UniProt Q04771)
T24 construct: purchased KINOMEscan
Description: as §1

[25] = target: T25, panel of 442 kinases (Homo sapiens, UniProt Q06187)
T25 construct: purchased KINOMEscan
Description: as §1

[26] = target: T26, panel of 442 kinases (Homo sapiens, UniProt Q12851)
T26 construct: purchased KINOMEscan
Description: as §1

[27] = target: T27, panel of 442 kinases (Homo sapiens, UniProt Q12866)
T27 construct: purchased KINOMEscan
Description: as §1

[28] = target: T28, panel of 442 kinases (Homo sapiens, UniProt Q13233)
T28 construct: purchased KINOMEscan
Description: as §1

[29] = target: T29, panel of 442 kinases (Homo sapiens, UniProt Q13523)
T29 construct: purchased KINOMEscan
Description: as §1

[30] = target: T30, panel of 442 kinases (Homo sapiens, UniProt Q15208)
T30 construct: purchased KINOMEscan
Description: as §1

[31] = target: T31, panel of 442 kinases (Homo sapiens, UniProt Q16512)
T31 construct: purchased KINOMEscan
Description: as §1

[32] = target: T32, panel of 442 kinases (Homo sapiens, UniProt Q16566)
T32 construct: purchased KINOMEscan
Description: as §1

[33] = target: T33, panel of 442 kinases (Homo sapiens, UniProt Q32MK0)
T33 construct: purchased KINOMEscan
Description: as §1

[34] = target: T34, panel of 442 kinases (Homo sapiens, UniProt Q5VT25)
T34 construct: purchased KINOMEscan
Description: as §1

[35] = target: T35, panel of 442 kinases (Homo sapiens, UniProt Q8IVH8)
T35 construct: purchased KINOMEscan
Description: as §1

[36] = target: T36, panel of 442 kinases (Homo sapiens, UniProt Q8TDX7)
T36 construct: purchased KINOMEscan
Description: as §1

[37] = target: T37, panel of 442 kinases (Homo sapiens, UniProt Q96GD4)
T37 construct: purchased KINOMEscan
Description: as §1

[38] = target: T38, panel of 442 kinases (Homo sapiens, UniProt Q9UPZ9)
T38 construct: purchased KINOMEscan
Description: as §1

[39] = target: T39, panel of 442 kinases (Homo sapiens, UniProt Q9Y2K2)
T39 construct: purchased KINOMEscan
Description: as §1

[40] = target: T40, panel of 442 kinases (Homo sapiens, UniProt Q9Y2U5)
T40 construct: purchased KINOMEscan
Description: as §1

[41] = target: T41, panel of 442 kinases (Homo sapiens, UniProt Q9Y5S2)
T41 construct: purchased KINOMEscan
Description: as §1

[42] = target: T42, panel of 442 kinases (Homo sapiens, UniProt Q9Y6M4)
T42 construct: purchased KINOMEscan
Description: as §1

COc1cc(C(=O)N2CCC(N3CCN(C)CC3)CC2)ccc1Nc1ncc2c(n1)N1CCc3cccc(c31)C(=O)N2C [Compound 24]
KINOMEscan: IKK-alpha [1]: 100 | KINOMEscan: ASK2 [2]: 100 | KINOMEscan: CHEK2 [3]: 100 | KINOMEscan: ABL1(T315I)-nonphosphorylated [4]: 100 | KINOMEscan: ABL1(Y253F)-phosphorylated [5]: 79 | KINOMEscan: IGF1R [6]: 87 | KINOMEscan: HCK [7]: 100 | KINOMEscan: KIT(D816H) [8]: 100 | KINOMEscan: FLT1 [9]: 100 | KINOMEscan: PKAC-beta [10]: 100 | KINOMEscan: MARK3 [11]: 100 | KINOMEscan: GRK4 [12]: 100 | KINOMEscan: FLT3 [13]: 100 | KINOMEscan: FLT3(D835H) [14]: 94 | KINOMEscan: ACVR1B [15]: 88 | KINOMEscan: PIK3CA(C420R) [16]: 100 | KINOMEscan: MTOR [17]: 85 | KINOMEscan: MAPKAPK2 [18]: 100 | KINOMEscan: GSK3A [19]: 100 | KINOMEscan: AMPK-alpha2 [20]: 89 | KINOMEscan: EPHB4 [21]: 100 | KINOMEscan: EPHB1 [22]: 100 | KINOMEscan: CSNK2A1 [23]: 75 | KINOMEscan: ACVR1 [24]: 100 | KINOMEscan: BTK [25]: 100 | KINOMEscan: MAP4K2 [26]: 86 | KINOMEscan: MERTK [27]: 100 | KINOMEscan: MAP3K1 [28]: 100 | KINOMEscan: PRP4 [29]: 95 | KINOMEscan: NDR1 [30]: 100 | KINOMEscan: PKN1 [31]: 100 | KINOMEscan: CAMK4 [32]: 100 | KINOMEscan: MLCK [33]: 100 | KINOMEscan: MRCKA [34]: 100 | KINOMEscan: MAP4K3 [35]: 100 | KINOMEscan: NEK7 [36]: 100 | KINOMEscan: AURKB [37]: 79 | KINOMEscan: ICK [38]: 100 | KINOMEscan: QSK [39]: 100 | KINOMEscan: MAP3K2 [40]: 100 | KINOMEscan: MRCKB [41]: 100 | KINOMEscan: CSNK1G3 [42]: 86
